Reference: patent US6426343B1 (dated 2002)

Amino acid sequences for entries named in this document (tags omitted). Residues count along the entry.
UniProt P14867, 28-456: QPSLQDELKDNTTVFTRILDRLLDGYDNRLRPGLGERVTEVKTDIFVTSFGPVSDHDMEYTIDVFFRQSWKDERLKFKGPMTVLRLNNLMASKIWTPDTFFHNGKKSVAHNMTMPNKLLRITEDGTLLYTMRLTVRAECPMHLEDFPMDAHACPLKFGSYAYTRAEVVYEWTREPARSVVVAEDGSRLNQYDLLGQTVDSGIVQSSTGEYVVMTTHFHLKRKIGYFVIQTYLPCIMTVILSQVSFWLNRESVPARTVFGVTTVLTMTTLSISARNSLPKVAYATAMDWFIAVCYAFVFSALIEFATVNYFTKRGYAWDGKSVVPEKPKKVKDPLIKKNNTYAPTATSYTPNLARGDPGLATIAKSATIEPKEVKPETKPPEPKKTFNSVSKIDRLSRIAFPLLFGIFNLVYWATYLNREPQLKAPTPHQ
UniProt P18507, 40-467 isoform P18507-1 limits assumed: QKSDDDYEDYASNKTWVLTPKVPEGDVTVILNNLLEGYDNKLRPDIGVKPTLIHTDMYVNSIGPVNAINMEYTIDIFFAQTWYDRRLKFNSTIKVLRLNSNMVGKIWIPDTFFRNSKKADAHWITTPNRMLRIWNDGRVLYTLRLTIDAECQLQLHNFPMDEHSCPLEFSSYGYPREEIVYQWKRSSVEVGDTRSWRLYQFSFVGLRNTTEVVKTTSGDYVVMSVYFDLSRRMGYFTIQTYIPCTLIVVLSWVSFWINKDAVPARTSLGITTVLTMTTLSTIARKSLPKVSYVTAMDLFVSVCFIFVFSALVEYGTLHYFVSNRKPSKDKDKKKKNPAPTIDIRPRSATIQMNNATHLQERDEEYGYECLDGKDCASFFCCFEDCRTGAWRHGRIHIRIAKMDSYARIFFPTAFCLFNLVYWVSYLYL
UniProt P47869, 29-451: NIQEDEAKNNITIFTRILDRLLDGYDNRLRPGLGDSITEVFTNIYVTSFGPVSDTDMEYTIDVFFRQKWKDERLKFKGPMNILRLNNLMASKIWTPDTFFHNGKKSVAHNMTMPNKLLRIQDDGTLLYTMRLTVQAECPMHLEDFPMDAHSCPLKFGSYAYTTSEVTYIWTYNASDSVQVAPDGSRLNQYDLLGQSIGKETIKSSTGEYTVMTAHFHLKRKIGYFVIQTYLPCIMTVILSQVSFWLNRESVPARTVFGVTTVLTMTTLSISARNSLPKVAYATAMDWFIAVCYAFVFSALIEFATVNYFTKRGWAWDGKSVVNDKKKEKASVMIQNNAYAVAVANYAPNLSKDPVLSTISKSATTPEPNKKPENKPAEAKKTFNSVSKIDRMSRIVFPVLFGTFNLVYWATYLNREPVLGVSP

How the values were obtained:
α1β3γ2 = α1β3γ2 (Homo sapiens, UniProt P14867+P18507); conditions: read-out: Ki α1β3γ2; [3H]Ro 15-1788 at twice Kd; mean±SEM, 3-6 determinations
α2β3γ2 = α2β3γ2 (Homo sapiens, UniProt P18507+P47869); assay: Radioligand binding, membranes of stably transfected cells; conditions: read-out: Ki α2β3γ2; [3H]Ro 15-1788 at twice Kd; mean±SEM, 3-6 determinations

With `CCOC(=O)c1ncn2c1CN(C)C(=O)c1cc(N=[N+]=[N-])ccc1-2` [Ro 15-4513, reference compound] the Ki (α1β3γ2) was 2.6 ± 0.11 nM and the Ki (α2β3γ2) was 2.6 ± 0.7 nM.
